The entries are a selection whose mix differs from that of the whole data set. Some salts and complexes are drawn in separate pieces, as the source files them; their charges need not balance. The source made the active and inactive calls.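 The calls were made as follows: active = inhibition above the mean of all tested compounds plus 3 SD, set per screening campaign (cut at about 17% in these data); inactive = the rest.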

In the assay the test system is cathepsin L1 (Fasciola hepatica). Description: CTSL1 protease inhibition, fluke enzyme – biochemical, QFRET, fluorogenic peptide substrate, counter-screen for PFM18AAP inhibitor project, primary screen (AID 1906).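 Also: 0% = plate median of test compound wells and 100% = 1 µM Z-Phe-Ala-diazomethylketone.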 The note with it: recombinant F. hepatica cathepsin L1, Z-Leu-Arg-MCA fluorescence; at 5.96 µM; stronger effect = higher value.
A word on the inhibition: it is the drop in the measured response relative to a control, in per cent. Consider `CP(=O)(Nc1ccc(Cl)cc1)Oc1ccc(F)cc1` (stereo not drawn), for which the inhibition was inactive: -2.44%.

For the molecule `CC(C)(C)c1ccc(OP(C)(=O)O)cc1`, the inhibition was inactive: 0.01%.

For the molecule `COc1ccccc1OP(C)(=O)Nc1ccccc1Br` (stereo not drawn), the inhibition was inactive: 0.1%.

Take `CN(C)C(=O)c1c([N+](=O)[O-])cc([N+](=O)[O-])cc1[N+](=O)[O-]`: the inhibition is inactive: 8.31%.

Take `CCN(CC)CC(O)COC(=O)C(O)(c1ccccc1)C1CCCCC1` (stereo not drawn): the inhibition is inactive: -5.84%.

Take `COc1ccc(OP(C)(=O)Nc2ccc(Br)cc2)cc1` (stereo not drawn): the inhibition was inactive: 1.21%.

Consider `CP(=O)(Oc1ccccc1)N1CCOC1=O` (stereo not drawn), for which the inhibition was inactive: -2.06%.

For the molecule `CCc1ccc(OP(C)(=O)Nc2cccnc2)cc1` (stereo not drawn), the inhibition was inactive: -0.88%.

With `COc1ccccc1OP(C)(=O)Nc1c(C)n(C)n(-c2ccccc2)c1=O` (stereo not drawn), the inhibition was inactive: -2.49%.

On to `O=C(OCCCN1CCCC1)C(O)(c1ccccc1)C1CCCCC1` (stereo not drawn), for which the inhibition is inactive: -4.88%.

Take `Nc1ccc2c(ccc3cccnc32)n1.O=[N+]([O-])c1cc([N+](=O)[O-])c(O)c([N+](=O)[O-])c1`: the inhibition was inactive: 4.75%.

On to `CP(=O)(OC12CC3CC(CC(C3)C1)C2)OC12CC3CC(CC(C3)C1)C2`, for which the inhibition was inactive: -0.36%.

As for `CCOC(=O)c1ccc(NP(C)(=O)Oc2ccc(Cl)cc2)cc1` (stereo not drawn), the inhibition is inactive: 1.88%.

With `Cc1nc2ccc3ccccc3c2o1.O=[N+]([O-])c1cc([N+](=O)[O-])c(O)c([N+](=O)[O-])c1`, the inhibition was inactive: 3.48%.

With `CP(=O)(OCCOc1ccccc1)OCCOc1ccccc1`, the inhibition is inactive: -4.77%.

As to `CP(=O)(Nc1ccc(Cl)cc1Cl)Oc1ccccc1` (stereo not drawn), the inhibition is inactive: -5.09%.

Regarding `Cc1cc(C)cc(OP(C)(=O)Nc2cccc(C(F)(F)F)c2)c1` (stereo not drawn), the inhibition is inactive: 2.9%.

With `COc1ccc(OP(C)(=O)Nc2ccccc2Br)cc1` (stereo not drawn), the inhibition was inactive: -3.19%.

As to `COc1ccccc1OP(C)(=O)Nc1ccc(C)c(C)c1` (stereo not drawn), the inhibition was inactive: 2.39%.

`O=[N+]([O-])c1cc([N+](=O)[O-])c(Nc2ccccn2)c([N+](=O)[O-])c1`: the inhibition is inactive: 8.59%.

Regarding `Cc1c(NP(C)(=O)Oc2ccc(C(C)C)cc2)c(=O)n(-c2ccccc2)n1C` (stereo not drawn), the inhibition is inactive: 0.34%.

As to `CCc1ccc(OP(C)(=O)O)cc1`, the inhibition is inactive: 0.64%.

On to `CP(=O)(Nc1ccccn1)Oc1ccccc1` (stereo not drawn), for which the inhibition is inactive: -2.46%.

For the molecule `COc1ccccc1OP(C)(=O)Nc1ccc(C)cc1C` (stereo not drawn), the inhibition was inactive: 1.6%.

For the molecule `COc1ccccc1OP(C)(=O)Nc1ccc(Br)cc1` (stereo not drawn), the inhibition is inactive: -1.37%.

As for `CN(C)CCOC(=O)C(O)(c1ccccc1)C1CCCC1` (stereo not drawn), the inhibition is inactive: 1.56%.

For `COc1ccc(OP(C)(=O)Nc2ccccn2)cc1` (stereo not drawn), the inhibition was inactive: -2.74%.

Regarding `O=C(OCCN1CCN(CCOCc2ccccc2)CC1)C(O)(c1ccccc1)c1ccccc1`, the inhibition is inactive: 1.23%.

On to `O=C(OC1CN2CCC1CC2)c1ccc([N+](=O)[O-])cc1` (stereo not drawn), for which the inhibition is inactive: 6.49%.

For `COc1ccc2c(c1O)-c1c(O)c(OC)cc3c1[C@H](C2)[N+](C)(C)CC3.O=[N+]([O-])c1cc([N+](=O)[O-])c([O-])c([N+](=O)[O-])c1[O-]`, the inhibition was inactive: 0.81%.

Turning to `CC(C)c1ccc(OP(C)(=O)Nc2ccc(SC(F)(F)F)cc2)cc1` (stereo not drawn), the inhibition is inactive: 2%.

In the case of `CP(=O)(Nc1ccccc1F)Oc1ccccc1` (stereo not drawn), the inhibition is inactive: -2.69%.

Take `CCN(CC)CCCOC(=O)C(O)(c1ccccc1)C1CCCCC1` (stereo not drawn): the inhibition is inactive: -1.03%.

As for `O=[N+]([O-])c1cc([N+](=O)[O-])c(OC2CCCCC2O)c([N+](=O)[O-])c1` (stereo not drawn), the inhibition is inactive: -0.78%.

With `CCCCCOc1ccc(NP(C)(=O)Oc2ccc(Cl)cc2Cl)cc1` (stereo not drawn), the inhibition was inactive: -1.46%.

Turning to `CP(=O)(Nc1ccccc1)Oc1ccc(F)cc1` (stereo not drawn), the inhibition was inactive: -1.03%.

As for `COc1ccc(OP(C)(=O)Nc2ccc(SC(F)(F)F)cc2)cc1` (stereo not drawn), the inhibition was inactive: 6.19%.

As for `CCOC(=O)c1ccc(NP(C)(=O)Oc2ccc(F)cc2)cc1` (stereo not drawn), the inhibition was inactive: -0.5%.

For the molecule `O=[N+]([O-])c1cc([N+](=O)[O-])c(NCC2CCS(=O)(=O)C2)c([N+](=O)[O-])c1` (stereo not drawn), the inhibition was inactive: 3.31%.

Take `COc1ccc(OP(C)(=O)Nc2cccc(Br)c2)cc1` (stereo not drawn): the inhibition was inactive: -3.64%.

`COc1ccc(NP(C)(=O)Oc2ccccc2OC)cc1` (stereo not drawn): the inhibition is inactive: -2.59%.

Consider `CN(C)CCOC(=O)C(O)(c1ccccc1)C1CCCCC1` (stereo not drawn), for which the inhibition is inactive: -1.54%.

Turning to `CP(=O)(Nc1ccc2c(c1)OCCO2)Oc1ccccc1` (stereo not drawn), the inhibition was inactive: -4.23%.

Consider `Cc1ccccc1NP(C)(=O)Nc1ccccc1C`, for which the inhibition was inactive: -2.8%.

`CP(=O)(Nc1ccc(SC(F)(F)F)cc1)Oc1ccc(F)cc1` (stereo not drawn): the inhibition was inactive: 3.1%.

Consider `CCOP(C)(=S)SCC(=O)NC(C)(CC)C(=O)O` (stereo not drawn), for which the inhibition was inactive: 2.32%.

On to `O=[N+]([O-])c1cc([N+](=O)[O-])c(-c2cnn(-c3ccccc3)c2)c([N+](=O)[O-])c1`, for which the inhibition was inactive: -1.73%.

For the molecule `Cc1nc2ccc3ccccc3c2s1.O=[N+]([O-])c1cc([N+](=O)[O-])c(O)c([N+](=O)[O-])c1`, the inhibition was inactive: 2.03%.

Turning to `O=[N+]([O-])c1cc([N+](=O)[O-])c(-n2nnc3ccccc32)c([N+](=O)[O-])c1`, the inhibition was inactive: 4.21%.

In the case of `COc1ccccc1OP(C)(=O)Nc1c(C)cccc1C` (stereo not drawn), the inhibition was inactive: -2.9%.

Turning to `CN1CCCCC1COC(=O)C1(O)c2ccccc2CCc2ccccc21` (stereo not drawn), the inhibition is inactive: -1.27%.

For `CP(=O)(Nc1ccc(SC(F)(F)F)cc1)Oc1ccccc1` (stereo not drawn), the inhibition is inactive: 0.49%.

For `CCCOc1ccc(NP(C)(=O)Oc2ccc(Cl)cc2)cc1` (stereo not drawn), the inhibition is inactive: 1.35%.

On to `O=[N+]([O-])c1cc([N+](=O)[O-])c(Nc2nnnn2CCO)c([N+](=O)[O-])c1`, for which the inhibition is inactive: -0.07%.

On to `CC1=C2N=C(C=C3N=C(C(C)=C4[N-][C@@](C)([C@@H]5N=C1[C@](C)(CCC(=O)NC[C@@H](C)OP(=O)([O-])O[C@H]1[C@@H](O)[C@@H](n6cnc7cc(C)c(C)cc76)O[C@@H]1CO)[C@H]5CC(N)=O)[C@@](C)(CC(N)=O)[C@@H]4CCC(N)=O)[C@@](C)(CC(N)=O)[C@@H]3CCC(N)=O)C(C)(C)[C@@H]2CCC(N)=O.[C-]#N.[Co+3]`, for which the inhibition was active: 28.7%.

In the case of `CCOC(=O)C(CC)C1=NC(C)(C)Cc2ccccc21.O=[N+]([O-])c1cc([N+](=O)[O-])c(O)c([N+](=O)[O-])c1` (stereo not drawn), the inhibition was inactive: 1.63%.

`CC1=NCCc2c1[nH]c1ccccc21.O=[N+]([O-])c1cc([N+](=O)[O-])c(O)c([N+](=O)[O-])c1`: the inhibition is inactive: 1.16%.

For `O=C(O)c1cccc(Nc2c([N+](=O)[O-])cc([N+](=O)[O-])cc2[N+](=O)[O-])c1`, the inhibition was inactive: 3.76%.

For the molecule `CP(=O)(Nc1cccc(Br)c1)Oc1ccccc1` (stereo not drawn), the inhibition was inactive: 5.6%.

As to `Cc1cc(C)cc(OP(C)(=O)Nc2ccccn2)c1` (stereo not drawn), the inhibition was inactive: -2.98%.

Turning to `Cc1ccc(C)c(NP(C)(=O)Oc2ccccc2)c1` (stereo not drawn), the inhibition was inactive: -2.81%.

As for `COc1ccccc1OP(C)(=O)Nc1cccc(Br)c1` (stereo not drawn), the inhibition is inactive: -2.16%.

Consider `Cc1cc(C)cc(OP(C)(=O)Nc2ccc(C)cc2C)c1` (stereo not drawn), for which the inhibition was inactive: 2.89%.

Consider `CCOC(=O)c1ccc(NP(C)(=O)Oc2cc(C)cc(C)c2)cc1` (stereo not drawn), for which the inhibition was inactive: 0.16%.

As for `CCN(CC)CCCOC(=O)C(O)(c1ccccc1)c1ccccc1`, the inhibition is inactive: -3.12%.

With `CCOC(=O)c1ccc(NP(C)(=O)Oc2ccccc2)cc1` (stereo not drawn), the inhibition was inactive: -3.13%.

Take `COc1ccccc1OP(C)(=O)Nc1ccc(C)cc1` (stereo not drawn): the inhibition is inactive: 0.34%.

Regarding `Cc1ccc(NP(C)(=O)Oc2ccccc2)c(C)c1` (stereo not drawn), the inhibition is inactive: 3.09%.

As to `COc1ccccc1OP(C)(=O)Nc1cc(Cl)ccc1C` (stereo not drawn), the inhibition is inactive: -0.86%.

On to `COc1ccc(OP(C)(=O)Nc2cccc(F)c2)cc1` (stereo not drawn), for which the inhibition was inactive: -4.64%.

As to `Cc1cc(C)cc(OP(C)(N)=O)c1` (stereo not drawn), the inhibition is inactive: -5.69%.

On to `O=[N+]([O-])c1cc([N+](=O)[O-])c(Nc2cccnc2)c([N+](=O)[O-])c1`, for which the inhibition is inactive: 1.38%.

Take `CC(C)(C)c1ccc(OP(C)(=O)Nc2ccc(SC(F)(F)F)cc2)cc1` (stereo not drawn): the inhibition was inactive: 2.04%.

On to `Cc1cccc(C)c1OP(C)(N)=O` (stereo not drawn), for which the inhibition is inactive: -4.06%.

With `O=[N+]([O-])c1ccc2c(c1)C=Nc1ccccc1O2`, the inhibition was inactive: 2.96%.

`CP(=S)(Nn1cnnc1)Oc1ccccc1` (stereo not drawn): the inhibition was inactive: -2.09%.

Take `COc1ccccc1OP(C)(=O)Nc1ccccc1` (stereo not drawn): the inhibition is inactive: 4.7%.

For `CP(=O)(Nc1ccccc1Br)Oc1ccccc1` (stereo not drawn), the inhibition is inactive: -2.69%.

On to `CCOP(C)(=S)SCC(=O)NC(C)C(=O)O` (stereo not drawn), for which the inhibition is inactive: -0.85%.

For the molecule `CCOC(=O)c1ccc(NP(C)(=O)Oc2ccc(OC)cc2)cc1` (stereo not drawn), the inhibition is inactive: 1.55%.

Regarding `O=[N+]([O-])c1cc([N+](=O)[O-])c(O)c([N+](=O)[O-])c1.c1ccc(Oc2ccncc2)cc1`, the inhibition is inactive: 3.56%.

For `CP(=O)(Nc1ccccn1)Oc1ccc(Cl)cc1` (stereo not drawn), the inhibition was inactive: 5.15%.

On to `Cc1cccc(C)c1OP(C)(=O)Nc1ccc(SC(F)(F)F)cc1` (stereo not drawn), for which the inhibition is inactive: -4.95%.

Consider `CP(=O)(Nc1ccc(SC(F)(F)F)cc1)Oc1ccc(Cl)cc1` (stereo not drawn), for which the inhibition is inactive: 1.93%.

Take `CP(=O)(Oc1ccccc1)OC(c1ccccc1)C(F)(F)F` (stereo not drawn): the inhibition is inactive: -1.05%.

As to `CCc1ccc(OP(C)(=O)N2CCN(c3ccc([N+](=O)[O-])cc3)CC2)cc1` (stereo not drawn), the inhibition is inactive: 6.54%.

For the molecule `CP(=O)(NC(=O)Nc1ccccc1)Oc1ccccc1` (stereo not drawn), the inhibition is inactive: -1.25%.

For the molecule `Cc1cc(C)cc(OP(C)(=O)Nc2ccc(SC(F)(F)F)cc2)c1` (stereo not drawn), the inhibition is inactive: 4.14%.

The record behind these values is PubChem BioAssay AID1906 (The Scripps Research Institute Molecular Screening Center, 2009).
